Experimental data taken from ChEMBL document CHEMBL2311254, “Tuning the preference of thiodigalactoside- and lactosamine-based ligands to galectin-3 over galectin-1” (J Med Chem, 2013).

Chains of the proteins cited; added tags and fusions are not shown.
UniProt P09382, whole entry: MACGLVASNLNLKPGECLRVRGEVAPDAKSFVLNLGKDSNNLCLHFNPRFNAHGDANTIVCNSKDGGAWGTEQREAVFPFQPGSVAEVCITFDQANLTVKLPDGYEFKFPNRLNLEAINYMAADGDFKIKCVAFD

Target: Galectin-1 (Homo sapiens, UniProt P09382)
Assay: Binding affinity to galectin-1 (unknown origin) by fluorescence polarization assay

Kd: 24 µM
SMILES: OC[C@H]1O[C@@H](S[C@@H]2O[C@H](CO)[C@H](O)[C@H](O)[C@H]2O)[C@H](O)[C@@H](O)[C@H]1O [THIODIGALACTOSIDE]
